Biological target: rabbit VEGF (rabbit) (UniProt G1T1L9)
Assay: SPR, summary table, column Rabbit VEGF, Kd [M]

By UniProt entry, the sequences of proteins in these tests, tags left out. Where a name states a change or a piece, a line headed by the entry shows the natural chain unless it says otherwise.
UniProt G1T1L9: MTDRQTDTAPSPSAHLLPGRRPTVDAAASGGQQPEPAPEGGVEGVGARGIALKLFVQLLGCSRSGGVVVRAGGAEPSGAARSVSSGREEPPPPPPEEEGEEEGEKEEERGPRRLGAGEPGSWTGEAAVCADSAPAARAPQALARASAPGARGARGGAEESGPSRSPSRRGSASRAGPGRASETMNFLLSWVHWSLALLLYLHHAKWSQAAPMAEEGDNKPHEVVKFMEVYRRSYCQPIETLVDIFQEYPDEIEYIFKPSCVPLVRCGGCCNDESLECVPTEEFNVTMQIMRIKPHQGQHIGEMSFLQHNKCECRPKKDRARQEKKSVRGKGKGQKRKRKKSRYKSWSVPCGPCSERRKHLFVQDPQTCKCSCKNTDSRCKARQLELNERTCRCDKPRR

Kd: 5.1 nM
Substance: faricimab (bispecific antibody)

— patent US20230287109A1
